Values quoted from earlier work, collected in patent US20100286233A1, “PERIPHERAL AND NEURAL INFLAMMATORY CROSSTALK” (University of Rochester, priority 2006, published 2010).

Tests used:
Conditions in all cases: cited from earlier work
δ-receptors = δ-receptors (Homo sapiens, UniProt P41143)
κ-receptors = κ-receptors (Homo sapiens, UniProt P41145)
μ-receptors = μ-receptors (Homo sapiens, UniProt P35372)

Compound	affinity for δ-receptors (δ-receptors)	affinity for κ-receptors (κ-receptors)	affinity for μ-receptors (μ-receptors)
CC(C)[C@H](NC(=O)[C@H](CCC(=O)O)NC(=O)[C@H](Cc1ccccc1)NC(=O)[C@@H](C)NC(=O)[C@@H](N)Cc1ccc(O)cc1)C(=O)N[C@H](C(=O)NCC(=O)O)C(C)C [deltorphin, Tyr-D-Met-Phe-His-Leu-Met-Asp-NH2]	highly selective		
Nociceptin/orphanin FQ: endogenous ligand for the ORL1-receptor, processed from pro-nociceptin/orphanin FQ	little affinity	little affinity	
YGGFLRRQFKVVT [dynorphin B]			significant affinity
dynorphin A: opioid fragment of pro-dynorphin, SEQ ID NO: 135			significant affinity
